{"source": "patent US20250228913A1", "about": "“STABILIZED OMEGA-3 OPHTHALMIC COMPOSITIONS” (Allergan, Inc., priority 2014, published 2025)", "assay": "Chemical stability of omega-3 oils in emulsions (FIG. 1, FIG. 2)", "conditions": "emulsions of Table 10", "data": [{"smiles": "CC(=O)Oc1c(C)c(C)c2c(c1C)CCC(C)(CCC[C@H](C)CCC[C@H](C)CCCC(C)C)O2", "note": "(stereo partly shown) [Vitamin E acetate]", "values": [{"measurement": "Effect of excipient on chemical stability of omega-3 oils in emulsion", "value": "worsened the chemical stability"}]}]}
